One may read the IC50 as the concentration at which inhibition is half-maximal.

The chains behind the UniProt entries cited, without tags or fusion partners. Where a name states a change or a piece, a line headed by the entry shows the natural chain unless it says otherwise.
UniProt Q96S37: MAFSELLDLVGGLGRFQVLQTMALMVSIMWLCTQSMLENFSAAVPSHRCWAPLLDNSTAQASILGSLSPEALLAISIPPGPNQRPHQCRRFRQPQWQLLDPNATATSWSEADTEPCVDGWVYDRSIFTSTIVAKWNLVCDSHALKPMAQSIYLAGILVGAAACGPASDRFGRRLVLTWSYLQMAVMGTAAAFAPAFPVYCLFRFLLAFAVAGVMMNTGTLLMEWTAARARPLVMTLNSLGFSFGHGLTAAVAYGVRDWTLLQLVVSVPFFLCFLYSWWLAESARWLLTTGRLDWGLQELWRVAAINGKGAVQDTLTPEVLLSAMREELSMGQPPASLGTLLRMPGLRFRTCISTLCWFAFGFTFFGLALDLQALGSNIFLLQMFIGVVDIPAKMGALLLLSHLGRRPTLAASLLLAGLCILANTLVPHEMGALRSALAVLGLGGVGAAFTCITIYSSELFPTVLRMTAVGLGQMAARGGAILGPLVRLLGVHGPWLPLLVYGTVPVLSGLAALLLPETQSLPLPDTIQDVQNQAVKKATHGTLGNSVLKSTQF
UniProt Q9NSA0: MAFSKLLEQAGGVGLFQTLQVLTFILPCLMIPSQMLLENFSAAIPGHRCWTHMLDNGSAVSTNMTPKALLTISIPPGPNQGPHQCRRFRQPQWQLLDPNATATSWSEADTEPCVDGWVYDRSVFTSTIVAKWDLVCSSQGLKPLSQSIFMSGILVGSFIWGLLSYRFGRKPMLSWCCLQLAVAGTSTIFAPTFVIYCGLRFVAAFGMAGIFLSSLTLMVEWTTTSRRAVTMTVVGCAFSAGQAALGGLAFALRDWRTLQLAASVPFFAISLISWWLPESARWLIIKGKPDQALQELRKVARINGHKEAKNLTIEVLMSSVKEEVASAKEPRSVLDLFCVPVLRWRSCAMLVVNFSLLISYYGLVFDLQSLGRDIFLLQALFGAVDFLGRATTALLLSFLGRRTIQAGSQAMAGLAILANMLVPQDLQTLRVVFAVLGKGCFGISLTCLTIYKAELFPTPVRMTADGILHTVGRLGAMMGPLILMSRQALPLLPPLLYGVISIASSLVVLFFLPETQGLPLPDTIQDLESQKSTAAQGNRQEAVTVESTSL

This note sets out measurements from patent US20170319552A1, “ATROPISOMERS OF TRIAZOLE DERIVATIVE” (ARDEA BIOSCIENCES, INC., priority 2016, published 2017).

For test [1], the target named is human URAT1 transporter (Homo sapiens, UniProt Q96S37). In words: HEK293 hURAT1 stable cell-line uric acid uptake assay. The conditions noted are these: HEK293 cells stably expressing URAT1; 14C-uric acid uptake; average of four runs, each in triplicate. The test is classed as cell-based.
Test [2] deals with T1, human OAT4 transporter (Homo sapiens, UniProt Q9NSA0). To be noted: atropisomer 1 versus atropisomer 2.
In test [3] the target is T1, human OAT4 transporter. The test is described as follows: cell-based. To be noted: OAT4 IC50, HEK293 cells stably expressing OAT4; 6-carboxyflorescein uptake; average of six runs, each in triplicate.

Take `O=C(O)CSc1nnc(Br)n1-c1ccc(C2CC2)c2ccccc12` (single isomer, unassigned) [Atropisomer 1, (−)-2-(5-bromo-4-(4-cyclopropylnaphthalen-1-yl)-4H-1,2,4-triazol-3-ylthio)acetic acid]: the IC50 in test [1] is 17.4 µM; in test [3] it was 3.68 µM. Further, in test [2], the “Activity against OAT4, comparison of atropisomers” value is “equally active”.
For `O=C(O)CSc1nnc(Br)n1-c1ccc(C2CC2)c2ccccc12` (racemic) [Compound (I), 2-(5-bromo-4-(4-cyclopropylnaphthalen-1-yl)-4H-1,2,4-triazol-3-ylthio)acetic acid], the IC50 in test [1] came out at 9.5 µM; in test [3], 4.25 µM.
`O=C(O)CSc1nnc(Br)n1-c1ccc(C2CC2)c2ccccc12` (single isomer, unassigned) [Atropisomer 2, (+)-2-(5-bromo-4-(4-cyclopropylnaphthalen-1-yl)-4H-1,2,4-triazol-3-ylthio)acetic acid]: the IC50 turned out to be 4.3 µM in test [1] and 4.36 µM in test [3]. Besides, the “Activity against OAT4, comparison of atropisomers” value in test [2] is reported as “equally active”.
